Measured values published in patent US8501744B2, “Piperazine compounds” (Amura Therapeutics, Limited, priority 2008, dated 2013).

The chains behind the UniProt entries cited, without tags or fusion partners. Residues count along the entry.
UniProt P43235, 115-329 limits assumed: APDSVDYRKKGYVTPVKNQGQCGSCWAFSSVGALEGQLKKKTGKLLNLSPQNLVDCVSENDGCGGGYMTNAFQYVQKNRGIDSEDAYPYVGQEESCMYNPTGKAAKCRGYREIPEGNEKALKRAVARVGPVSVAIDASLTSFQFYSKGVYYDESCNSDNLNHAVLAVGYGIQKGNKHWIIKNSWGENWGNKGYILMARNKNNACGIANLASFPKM

Target: Human recombinant cathepsin K (Homo sapiens (Human), UniProt P43235)
Assay: In vitro cathepsin Ki inhibition measurements
Assay type: biochemical
Settings: read-out: Ki (nM) vs Human Cathepsin K, prior art WO-A-02057270 examples

Ki [nM] | Compound
> 4000 | CC(C)(C)c1ccc(C(=O)N[C@@H](Cc2ccc(O)cc2)C(=O)N2CC[C@H]3OCC(=O)[C@H]32)cc1
> 50000 | O=C(N[C@@H](Cc1ccc(O)cc1)C(=O)N1CC[C@H]2OCC(=O)[C@H]21)c1ccc(-c2ccccc2)cc1
